Experimental data: publication PMC8203801, “Albumin in patients with liver disease shows an altered conformation” (Communications Biology, 2021)

Target: HSA (Homo sapiens, UniProt P02768)
Assay: Dansylsarcosine (DS) binding to prepared HSA, fluorescence titration
Settings: dansylsarcosine (DS) binding to the HSA sample prepared from plasma of that patient (P) or healthy control (C); HSA diluted to 10 µmol/L in PBS, 20 min at 37 °C, fluorescence 355/460 nm

Substance: P6: HSA prepared from plasma of patient P6 with chronic liver failure
- Kd: 17 µM

Substance: P1: HSA prepared from plasma of patient P1 with chronic liver failure
- Kd: 28 µM

Substance: P2: HSA prepared from plasma of patient P2 with chronic liver failure
- Kd: 15 µM

Substance: P4: HSA prepared from plasma of patient P4 with chronic liver failure
- Kd: 22 µM

Substance: C2: HSA prepared from plasma of healthy control person C2
- Kd: 12 µM

Substance: P9: HSA prepared from plasma of patient P9 with chronic liver failure
- Kd: 13 µM

Substance: P5: HSA prepared from plasma of patient P5 with chronic liver failure
- Kd: 28 µM

Substance: C1: HSA prepared from plasma of healthy control person C1
- Kd: 18 µM

Substance: P3: HSA prepared from plasma of patient P3 with chronic liver failure
- Kd: 25 µM

Substance: P7: HSA prepared from plasma of patient P7 with chronic liver failure
- Kd: 20 µM
